Test results from patent US7132401B2, “Beta-secretase substrates and uses thereof” (Merck & Co., Inc., priority 2002, dated 2006).

Sequences of proteins named here, by UniProt entry; tags and fusion partners are left off. Residues count along the entry.
UniProt P56817, 46-501: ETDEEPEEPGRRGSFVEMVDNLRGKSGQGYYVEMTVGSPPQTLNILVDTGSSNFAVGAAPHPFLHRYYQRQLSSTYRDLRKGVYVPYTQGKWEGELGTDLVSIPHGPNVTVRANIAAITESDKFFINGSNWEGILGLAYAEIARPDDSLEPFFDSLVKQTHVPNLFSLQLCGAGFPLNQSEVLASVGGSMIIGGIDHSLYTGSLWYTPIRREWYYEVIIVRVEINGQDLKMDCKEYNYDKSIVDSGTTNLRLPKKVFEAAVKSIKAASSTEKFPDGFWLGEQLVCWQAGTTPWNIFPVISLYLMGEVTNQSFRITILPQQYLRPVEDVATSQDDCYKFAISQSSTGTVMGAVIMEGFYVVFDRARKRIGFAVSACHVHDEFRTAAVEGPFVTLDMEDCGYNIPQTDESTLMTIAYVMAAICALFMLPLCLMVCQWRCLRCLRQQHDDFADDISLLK

Biological target: β-secretase (Homo sapiens, UniProt P56817)
Assay: β-secretase cleavage of peptide substrates and peptide libraries followed by LC/MS
Format: biochemical
Procedure: Following synthesis and purification, each of the eight peptide libraries was incubated with the enzyme β-secretase and the relative rates of cleavage of each individual peptide library component was followed with liquid chromatography/mass spectrometry (LC/MS) with analysis of both the depletion of the full length peptide substrate, as well as the formation of peptide cleavage fragments. The enzyme β-secretase was incubated at concentrations ranging from 5 to 50 nM at pH 4.5 with each of the peptide libraries and/or mixtures of synthetic peptide substrates.
For all incubations, the concentration of each individual peptide substrate was held at 1 μM to avoid precipitation, which could be observed at higher substrate concentrations with some of the more insoluble substrates. The mixtures of substrates and enzyme were incubated in an Agillent Technology 1100 series liquid chromatograph with a temperature controlled autosampler. The temperature for all β-secretase enzymatic assays was held constant at 37° C. A 100 μl aliquot of each reaction mixture was injected onto a 1×50 mm C18 reverse phase 1c column (Metachem Technologies Inc., Torrance, Calif.) every two hours to monitor reaction progress. After injection, a highly optimized solvent gradient was delivered to the column to maximize resolving power for each of the substrate library components. Optimal performance was obtained with a gradient starting at 20% solvent B (B=Acetonitrile with 0.05% trifluoroacetic acid, A=0.05% TFA in H2O) and increasing to 40% solvent B over 40 minutes. After the LC/MS run, the data were processed by selected-ion chromatograms for each of the peptide substrate library components by extracting 0.5 Da mass windows surrounding the calculated mass values of each of the peptides.
For example, FIG. 2 illustrates the differences in rates of cleavage observed for all peptide library components from the P1′ peptide library when treated with the enzyme β-secretase.

rate of cleavage (depletion of full length substrate) of P1′ peptide library components (P1′ peptide library treated with β-secretase, FIG. 2): most rapidly hydrolyzed | Relative rates of hydrolysis (hydrolysis by β-secretase, Swedish mutant EVNLDAEF (SEQ ID NO: 257) = 1, each peptide 1 μM, pH 4.5, 37° C.): 10
Sequence: EVNLAAEF
formation of C-terminal cleavage products from the P1′ peptide library (P1′ peptide library, FIG. 3): more rapid and comparable rates of formation
